The source of these data is patent US20260284219A1, “ANTIBODY CONJUGATE, AND USES THEREOF” (Acepodia Biotechnologies, Ltd., priority 2024, published 2026).

Data set [1] concerns human HER2-positive breast cancer cell line SK-BR-3. The data set can be described thus: Cytotoxicity assay (CellTiter-Glo 2.0), SK-BR-3. The following applies: up to 133.3 nM for 6 days, FIG. 11A, 11B. Format: cell-based. The method, then:
(§1) Each condition was performed in triplicate.

In data set [2] the test system is human triple-negative breast cancer MDA-MB-231 cells. As to the kind of experiment: Cytotoxicity assay (CellTiter-Glo 2.0), MDA-MB-231. Format: cell-based. As to conditions: trastuzumab conjugates; up to 133.3 nM for 6 days; FIG. 12; listed as Trastuzumab AD2C. The method, then:
as §1

“Trastuzumab-exatecan-vcMMAE (DAR10): Trastuzumab with 8 exatecan on cysteines and 2 MMAE on light-chain lysines (DAR10)”: the “cytotoxicity against SK-BR-3 cells” value in data set [1] is reported as “better cytotoxicity”; in data set [1] (listed as Trastuzumab AD2C), “exhibits cytotoxicity”. For the same substance, in data set [2], the “cytotoxicity against MDA-MB-231 (HER2-negative)” value is listed as “exhibits cytotoxicity”.
